Data: patent US20110262508A1, “ANTIMICROBIAL COMPOSITIONS, FORMULATIONS AND USES THEREOF” (priority 2007, published 2011)

Tested on: Jurkat cells
Assay: Cytotoxicity against Jurkat cells (CellTiter Blue)
Format: cell-based, human
Procedure: The cytotoxicities of selected peptides against human T-lymphocytes, in particular Jurkat cells, was determined by growing 100 uL Jurkat cells in RPMI (approx. 5×10^5 cells/ml density) overnight at 37° C. under 5% CO2 atmosphere, in microtiter plate wells, in the presence and absence of peptides. Control reactions either lacked peptide (negative cytotoxicity control), or contained a buffer to completely lyse Jurkat cells (positive cytotoxicity control). The viabilities of cells were then determined by addition of 20 uL CellTiter Blue dye (Promega) to each well, and incubation of cells for a further 3 hrs at 37° C. Fluorescence values were measured for 1 sec at 540 nm/615 nm, and expressed relative to fluorescence values for negative and positive cytotoxicity control samples. Comparison with a fully lysed control allowed the calculation of a percentage killing for each peptide concentration. The MCC10 value was calculated as the minimum peptide concentration required to induce 10% cytotoxicity.

Question: With tachyplesin-1 [reference compound] as the substance, how does the “Percent Jurkat cells killed at 20 μM” value read?
Answer: 10%
